Experimental data from publication PMC3220703, “Effects of DPP-4 Inhibitors on the Heart in a Rat Model of Uremic Cardiomyopathy” (PLoS ONE, 2011).

The chains behind the UniProt entries cited, without tags or fusion partners. Residues count along the entry.
UniProt P14740, 37-767 limits assumed: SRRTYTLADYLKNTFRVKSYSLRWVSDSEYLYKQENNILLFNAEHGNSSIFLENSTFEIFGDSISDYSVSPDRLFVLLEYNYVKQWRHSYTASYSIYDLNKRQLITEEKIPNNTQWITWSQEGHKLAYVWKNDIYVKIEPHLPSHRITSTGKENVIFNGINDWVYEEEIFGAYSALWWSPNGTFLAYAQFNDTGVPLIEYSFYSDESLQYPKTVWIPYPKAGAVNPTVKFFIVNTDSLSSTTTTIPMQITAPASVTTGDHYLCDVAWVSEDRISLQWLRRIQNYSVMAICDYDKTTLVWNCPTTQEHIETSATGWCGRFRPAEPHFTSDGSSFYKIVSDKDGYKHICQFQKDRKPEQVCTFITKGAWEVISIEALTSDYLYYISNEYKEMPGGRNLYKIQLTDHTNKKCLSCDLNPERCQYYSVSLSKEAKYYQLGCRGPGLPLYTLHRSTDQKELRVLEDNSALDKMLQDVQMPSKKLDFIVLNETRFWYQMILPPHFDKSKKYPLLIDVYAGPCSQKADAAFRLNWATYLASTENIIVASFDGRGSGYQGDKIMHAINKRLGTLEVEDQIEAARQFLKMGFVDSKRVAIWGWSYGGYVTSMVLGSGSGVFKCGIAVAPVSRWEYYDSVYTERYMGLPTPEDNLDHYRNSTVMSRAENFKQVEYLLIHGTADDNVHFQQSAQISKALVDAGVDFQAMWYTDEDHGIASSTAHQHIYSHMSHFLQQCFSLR

Experiments:
[1] = tested on: 5/6N rats; assay: Markers of kidney function before and after drug administration in 5/6N rats; assay type: in vivo, rat; conditions: before drug administration, 7.0 µmol/kg group, mean±SEM
Method: Creatinine concentration was measured by the Jaffe colorimetric method. Creatinine clearance was estimated as described previously.
For each parameter, the log10-transformed values were analyzed separately using an ANOVA for repeated measurements with factors for experimental group and time as fixed effects. […] These statistical analyses were carried out with the software product SAS (SAS Institute, Cary, NC USA), version 9.2.

[2] = target: DPP-4 (Rattus norvegicus, UniProt P14740); conditions: 7 µmol/kg oral; 24 h after administration; sham and 5/6N rats pooled; mean±SEM; control 82156±20673 (Table 1 gives fluorescence units)

| SMILES | Osteopontin [1] | DPP-4 activity [2] |
| --- | --- | --- |
| Cn1c(=O)cc(N2CCC[C@@H](N)C2)n(Cc2ccccc2C#N)c1=O [Alogliptin, alogliptin] | 50.9 ± 5.5 ng/mL | 50874±8958 |
| N[C@@H](CC(=O)N1CCn2c(nnc2C(F)(F)F)C1)Cc1cc(F)c(F)cc1F [Sitagliptin, sitagliptin] |  | 57219±21531 |
